Measurements as given in PMC3466217, “A Novel Magnetic Nanoparticle Drug Carrier for Enhanced Cancer Chemotherapy” (PLoS ONE, 2012).
Values joined by “and” are separate entries in the source; they are usually repeats but may differ in a detail not shown here. Equal values may be shown once.

Test system: H22 hepatoma cell tumor
Assay: Chemotherapy experiments in H22 tumor-bearing mice (tumor volume, life span, histology)
Details: day 33 after start of treatment, 5 mg DOX/kg iv three times, no EMF

COc1cccc2c1C(=O)c1c(O)c3c(c(O)c1C2=O)C[C@@](O)(C(=O)CO)C[C@@H]3O[C@H]1C[C@H](N)[C@H](O)[C@H](C)O1 [DOX, doxorubicin]
relative tumor volume (V/V0): 14.8±1.64 and 14.8±1.67
